“purified catalytic subunit of cAMP-dependent protein kinase from bovine heart”: the 32P incorporated is 19.8 pmol/unit in the data set on KKRKSAA; 10.3 pmol/unit in the data set with AKRPSAA; 4.8 pmol/unit with AKRASAA; 1.8 pmol/unit in the data set with AKRESAA; 6.9 pmol/unit in the data set with PKRASAA; 108 pmol/unit in the data set on ARKASAA. The 32P incorporated in the data set with RKKKSAA turned out to be 5.4 pmol/unit; in the data set with AKRASEA, 3.6 pmol/unit; in the data set with ARRASAA it was 137 pmol/unit; in the data set with EKRASAA it was 1.7 pmol/unit. Besides, the 32P incorporated, % (AKRASAA = 100) in the data set with KKRKSAA worked out at 412%; in the data set on AKRPSAA, 215%; with AKRASAA, 100%; with AKRESAA it was 38%; in the data set on PKRASAA, 144%; with ARKASAA it was 2240%. Also, the 32P incorporated, % (AKRASAA = 100) in the data set on RKKKSAA came to 112%; with AKRASEA, 75%; in the data set with ARRASAA, 2860%; in the data set with EKRASAA, 4%.

Source of the values: patent US20030088057.
